Reference: patent US6699834B1, “Method for treating cancer” (University of Maryland Biotechnology Institute, priority 1997, dated 2004)

What was measured:
[1] = test system: KS Y-1 and KS-SLK cells; assay: Kaposi's Sarcoma clonogenic assay in cultured cells; type: cell-based, human; settings: for KS in vitro: inhibition of Kaposi's Sarcoma cell growth in vitro in cultured cells; for inhibition of KS cell growth in clonogenic assays (in words): KS Y-1 and KS SLK
Protocol: Briefly, the KS Y-1 cells were obtained from mononuclear cells isolated from pleural effusion of an AIDS patient with KS in the lungs. After the depletion of T lymphocytes, monocytes/macrophages and fibroblasts using monoclonal antibodies against CD2, CD3, CD4, CD8, CD10 and CD14 membrane antigens and baby rabbit complement, the cells were cultured in the absence of exogenous growth factors to select for transformed cells. […] Clonogenic assays were performed by seeding the KS Y-1 or KS-SLK cells in methylcellulose (0.8%, v/v), incubating the cells for 10 days in the presence or absence of the hCC, β-hCG or β-hCG peptide preparations and then counting the number of well-formed colonies of triplicate wells formed after seeding with 5×10^4 cells.
To assay for activity against Kaposi's sarcoma cell growth in vitro, the clonogenic assay described herein was used with the KS Y-1 and KS-SLK cultured Kaposi's Sarcoma cell lines,. The cells were incubated in 200 IU/ml of commercial hCG preparations; 50 μl/ml of certain fractions from the hCG preparation of early pregnancy urine fractionation; or 100 μg/ml β- and α-hCG chains, β-hCG core protein, β-hCG peptides or LH (leuteinizing hormone).

[2] = test system: Kaposi's Sarcoma induced in mice; assay: Kaposi's Sarcoma tumors induced in mice by KS Y-1 cells; type: in vivo; settings: inhibition of Kaposi's Sarcoma induced in mice
Protocol: The effects of the peptides on KS tumor cells were also evaluated in vivo in the KS mouse model. To induce KS tumors in the mice, 1×10^6/ml KS Y-1 cells in 50 μl PBS or saline were injected subcutaneously into immunodeficient mice (beige-XID-BNX mice). After one week, tumors ranged in size from 2 mm×3 mm to 3 mm×5 mm. Methods for detection of apoptosis (from tissue biopsies) were used, as described in Lunardi-Iskandar et al.(1995, Nature 375:64-68). Briefly, the samples were stained in situ for the presence of cells with DNA fragmentation. Tissue slides from formalin-fixed tumors were treated with terminal deoxynucleotide transferase for extension of DNA ends (hydroxyl 3′) and incorporation of digoxigenin-11-dUTP according to the manufacturer's instructions (Oncor, Gaithersburg, Md.). Anti-digoxigenin antibody conjugated with the enzyme peroxidase allowed detection of apoptotic cells, which stain brown, whereas viable cells stain blue.
Certain fractions were tested for activity in reducing Kaposi's Sarcoma lesions in the Kaposi's Sarcoma mouse model as described herein. In this assay, starting one week after injection of the KS Y-1 cells to induce Kaposi's sarcoma formation, the mice were injected subcutaneously with 100 IU hCG. […] After one week of the week of treatment with the hCG fractions, the KS lesions were examined for cell apoptosis and regression as described herein.
Certain fractions of the APL™ hCG and early pregnancy urine were assayed for their ability to elicit apoptosis in Kaposi's Sarcoma lesions induced by injection of KS Y-1 cells in mice (n=3 mice for each treatment). The mice were administered 100 μl subcutaneously of the particular fraction each day for one week. Table 4 presents data on the size of the Kaposi's Sarcoma lesions and the percentage of apoptotic cells within the lesion after one week of treatment with fractions 60, 64, 64, 74, 82 and 85 of the APL™ hCG fractions and the unfractionated APL™ hCG preparation. […] Treatment with fractions 82 and 85 (containing material with apparent molecular weights smaller than approximately 2-3 kD) of the APL™ hCG material also elicited almost no Kaposi's Sarcoma lesion regression or apoptosis (Table 4). The unfractionated APL™ hCG, as well as fractions 60 and 74 (fractions within the peaks containing material with apparent molecular weight of approximately 15 kb and 2-3 kD, respectively) of the APL™ hCG fractionated material, caused about 50% apoptsis within the lesion and significant lesion regression (Table 4).

[3] = test system: hematopoietic progenitor cells; assay: Hematopoietic progenitor clonogenic assays (CFU-GEMM, BFU-e, CFU-GM); type: cell-based, human; settings: for Pro-hematopoiesis in vitro Enhancement: relative increase of hematopoietic colony cell number, hCG preparations 200 IU/ml, subunits and peptides 100 μg/ml
Protocol: The effect of hCG preparations and peptides was assayed on hematopoietic progenitor cells in vitro: Hematopoietic progenitor cells (2×10^5 cell/ml) were isolated from normal bone marrow and cord blood and seeded in methylcellulose. The following hCG preparations and peptides were used in these clonogenic assays were: hCG (APL™); hCG alpha subunit (Sigma); purified hCG heterodimer CR 127; β-hCG peptide 109-119 (SEQ ID NO:7) (Bachem); β-hCG peptide 45-57 (SEQ ID NO:6); β-hCG, peptide 45-57 circularized (44-57 with cysteine substituted for the amino acid at position 44, SEQ ID NO:26); mixture of scrambled β-hCG peptides 45-57 and 109-119; and crude preparation of native β-hCG Also tested were the peptides 45-57 linked at the C-terminus via a peptide bond to the N-terminus of 109-119 (45-57::109-119; SEQ ID NO:30), 47-55 (SEQ ID NO:20) and 48-56 (SEQ ID NO:35) as well as other hCG, α-hCG and β-hCG preparations and α-hCG and β-hCG peptides (Table 3). The hCG preparations were administered at 200 IU/ml and the β- and α-subunits and peptides were administered at 100 μg/ml. The native commercial preparation of hCG (APL™, Wyeth Ayerst) was pre-tested for anti-HIV and anti-KS activities. Aggregates containing more than 50 cells after 10 days of culture were counted as colonies.

Substance | KS in vitro [1] | KS in vivo [2] | Pro-hematopoiesis in vitro Enhancement [3] | inhibition of KS cell growth in clonogenic assays (in words) ([1]; listed as C-R127) | inhibition of KS cell growth in clonogenic assays (in words) ([1]; listed as CR 127) | promotion of hematopoiesis (in words) [3] | inhibition of KS cell growth in clonogenic assays (in words) [1]
CR1XY17B: mixture of highly purified α-hCG and β-hCG from NICHD, NIH [reference compound] | − (“−” represents less than 10% effect) | − (“−” represents less than 10% effect) | − (“−” represents less than 10% effect) |  |  |  | 
CR1XY17V: highly purified hCG preparation from NICHD, NIH [reference compound] | − (“−” represents less than 10% effect) |  | − (“−” represents less than 10% effect) |  |  |  | 
CR127: highly purified hCG preparation from NICHD, NIH [reference compound] | − (“−” represents less than 10% effect) |  | − (“−” represents less than 10% effect) | inactive | negligibly | but not by; also recorded: did not promote hematopoiesis | 
ORGANON: a highly purified hCG preparation obtained from Organon | − (“−” represents less than 10% effect) | − (“−” represents less than 10% effect) |  |  |  |  | 
rhCG: recombinant hCG expressed in a mouse cell line (Sigma) | − (“−” represents less than 10% effect) | − (“−” represents less than 10% effect) | − (“−” represents less than 10% effect) |  |  |  | negligibly
rαhCG: recombinant α subunit expressed in mouse cells (Sigma) | − (“−” represents less than 10% effect) | − (“−” represents less than 10% effect) | − (“−” represents less than 10% effect) |  |  |  | 
αfp1769A: purified, native α subunit (NICHD, NIH) | − (“−” represents less than 10% effect) |  | − (“−” represents less than 10% effect) |  |  |  | 
αhCG: purified native α subunit of hCG (Sigma) | − (“−” represents less than 10% effect) | − (“−” represents less than 10% effect) | − (“−” represents less than 10% effect) |  |  | did not promote hematopoiesis | negligibly

Entries after “also recorded” stand apart in the source; their conditions may differ.
